# In PubChem BioAssay AID1508609 (The Scripps Research Institute Molecular Screening Center, 2020):
# Amino acid sequences for entries named in this document (tags omitted).
# UniProt Q8TDV0, whole entry: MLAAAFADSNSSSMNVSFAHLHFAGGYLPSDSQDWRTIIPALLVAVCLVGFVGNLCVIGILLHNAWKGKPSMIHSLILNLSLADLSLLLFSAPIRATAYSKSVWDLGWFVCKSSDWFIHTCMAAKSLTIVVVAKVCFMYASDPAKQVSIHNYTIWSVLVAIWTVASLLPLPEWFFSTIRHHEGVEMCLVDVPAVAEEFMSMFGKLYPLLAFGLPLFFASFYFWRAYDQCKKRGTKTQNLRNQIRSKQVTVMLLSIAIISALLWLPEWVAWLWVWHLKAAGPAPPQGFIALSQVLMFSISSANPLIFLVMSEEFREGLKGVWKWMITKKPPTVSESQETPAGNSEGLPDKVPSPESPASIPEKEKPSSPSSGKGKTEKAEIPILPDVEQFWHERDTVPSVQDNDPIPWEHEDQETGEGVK
# The entries are a selection whose mix differs from that of the whole data set. Active and inactive are the calls of the source.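 The calls were made as follows: active = mean percent activation across replicates above the confirmation screen cutoff of 4.91%; inactive = the rest.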
# Target: G-protein coupled receptor 151 (Homo sapiens) (UniProt Q8TDV0)
# Assay: GPR151 activators, triplicate retest, confirmation, cell-based, PathHunter beta-arrestin, luminescence (AID 1508609)
# Conditions: GPR151 PathHunter beta-arrestin cells, 90 min, at 11.2 µM, stronger effect = higher value, % of EA-reagent control over plate median
row,Compound,activation
1,CP(=O)(O)Oc1cccc(Cl)c1Cl,inactive: 0.45%
2,CP(=O)(Nc1ccccn1)Oc1ccc(Cl)cc1 (configuration not stated),inactive: 0.27%
